Results from patent US20080275430A1, “Prolonged Transit Time of Permeability-Enhancing Drug Eluting Pill” (priority 2004, published 2008).

Experiments:
[1] = system: upper jejunum tissue segments; conditions: 12 Hz monophasic pulses, 1 millisecond, 3 mA, vs control without electrical stimulation; 1 mg/ml in HBSS pH 7.4, 90-minute period
[2] = system: upper jejunum tissue segment; conditions: for permeation efficiency, effect of pulse cycle: 1 millisecond (FIG. 31); for ocreotide permeation vs control group: 3 mA (FIG. 29); for permeation efficiency, effect of electrode material: 1 millisecond (FIG. 34)
[3] = system: proximal ileum tissue samples; conditions: 18 Hz, 3 mA, 1 millisecond, at 7 minutes, vs region control (FIG. 36)
[4] = system: distal ileum tissue samples; conditions: 18 Hz, 3 mA, 1 millisecond, at 7 minutes, vs region control (FIG. 36)

ocreotide acetate
ocreotide permeation into acceptor cell [1]: substantially greater increase in ocreotide permeation | permeation efficiency, effect of pulse cycle ([2]; 1 pulse per cycle among 1, 2, 3 pulses per cycle, 18 Hz, 3 mA): greatest permeation efficiency | transport enhancement ratio (ER), effect of pulse frequency ([2]; 18 Hz among 5, 12, 18, 24, 30, 60 Hz, 1 millisecond, 3 mA, at 30 minutes (FIG. 28)): greatest enhancement ratio | permeation efficiency, effect of pulse cycle ([2]; as the number of pulses per cycle increased (2 and 3 pulses per cycle, 5-millisecond intervals), 18 Hz, 3 mA): permeation efficiency decreased | permeation efficiency, effect of cessation of pulse application ([2]; continuous application vs cessation after 10 minutes, 18 Hz, 3 mA, 1 millisecond, normalized to non-stimulated control (FIG. 35)): substantially greater permeation efficiency | magnitude of permeation efficiency, effect of electrode distance from jejunal tissue ([2]; electrode distance 0.5 mm vs 3 mm, 18 Hz, 3 mA, 1 millisecond, at 15 minutes (FIG. 32)): greater at 0.5 mm than at 3 mm | permeation efficiency, effect of pulse application by intestinal region ([2]; jejunal tissue, 18 Hz, 3 mA, 1 millisecond, at 7 minutes, vs region control (FIG. 36)): greatest effect of pulse application | ocreotide permeation (permeation efficiency) ([2]; monophasic rectangular pulses 1 millisecond, 18 Hz, 3 mA, vs non-stimulated control group (FIG. 27)): substantially enhanced ocreotide permeation | transport enhancement ratio (ER), effect of pulse duration ([2]; pulse duration 1 millisecond among 0.2, 0.5, 1, 3 milliseconds, 18 Hz, 3 mA, at 15 minutes (FIG. 30)): greatest enhancement ratio | ocreotide permeation vs control group ([2]; pulses at 5 Hz, 1 millisecond): did not yield a higher ocreotide permeation | ocreotide permeation vs control group ([2]; pulses at 60 Hz, 1 millisecond): did not yield a higher ocreotide permeation | permeation efficiency, effect of electrode material ([2]; silver chloride (AgCl) electrodes, 18 Hz, 3 mA): did not increase permeation efficiency | permeation efficiency, effect of electrode material ([2]; stainless steel (SS316L) electrodes, 18 Hz, 3 mA): substantially increased permeation efficiency | permeation efficiency, effect of electrode material ([2]; titanium nitride (TN) electrodes, 18 Hz, 3 mA): did not increase permeation efficiency | permeation efficiency, effect of electrode insulation ([2]; without divider 528, electrodes not insulated from each other, 18 Hz, 3 mA, 1 millisecond (FIG. 33)): did not increase permeation efficiency | permeation efficiency, effect of pulse application by intestinal region [3]: increased permeation efficiency | permeation efficiency, effect of pulse application by intestinal region [4]: positive but less pronounced effect

Read-outs that look alike come from different tables or passages of the source.
